Data reported in patent publication EP4834902A1, “THIAZOLYL-PYRAZOLO[1,5-A]PYRIDINE COMPOUND AND USE THEREOF AS MYLK4 INHIBITOR” (dated 2026).

Legend:
[1] = system: Cynomolgus normotensive monkeys; test: Intraocular pressure lowering effect by single instillation (normotensive monkeys); conditions: 30 µL single instillation, n=2
Protocol: The hydrochloride of compound 129 was added to purified water together with a solubilizing agent, an isotonic agent, a preservative, and a pH adjuster at final concentrations of 0.05 mg/mL and 4 mg/mL to prepare eye drops (test compound solutions). In addition, a solution prepared in the same manner, but without the compound, was used as a blank.
Cynomolgus normotensive monkeys (male, 7 years old) were used for the experiment. A 30 µL aliquot of the blank was instilled to the left eye, and a 30 µL aliquot of the test compound solution was instilled to the right eye. Test compound solutions at different concentrations were administered to the same animal at one-week intervals.
(§1) 0.4% benoxyl ophthalmic solution (Santen Pharmaceutical Co., Ltd.) was instilled to achieve topical anesthesia, and then the intraocular pressure was measured using a pneumatic applanation tonometer (Model 30 Classic, Reichert, Inc.). Intraocular pressure measurements were performed before administration (0 hours), and 0.5, 1, 2, 4, 8, and 24 hours after administration of the blank or the test compound solution.
Each IOP was calculated as an average value of three measurements, and the change in intraocular pressure (ΔIOP) was calculated as the difference between the IOP at each time point and the IOP at 0 h (before administration).

Normotensive rabbits = test: Intraocular pressure lowering effect by single instillation (normotensive rabbits); conditions: 50 µL single instillation, n=4
Protocol: Compounds 129, 6, 53, and 130, as well as compound 74 in its free form, were formulated at various concentrations with a solubilizing agent, isotonic agent, preservative, and pH adjuster in purified water to prepare eye drops (test compound solutions). In addition, a solution prepared in the same manner, but without the compound, was used as a blank.
Normotensive rabbits (Kbl:NZW, male, 11 to 12 weeks old) were used for the experiment. 50 µL of the blank was instilled to the left eye, and 50 µL of the test compound solution was instilled to the right eye. The same test compound solution was instilled in the same animal at increasing concentrations, and each instillation was performed at intervals of one week.
as §1
Each IOP was an average value of three measurements, and the change in intraocular pressure (ΔIOP) was calculated as the difference between the IOP at each time point and the IOP at 0 h (before instillation) for each individual.

[2] = 0.05 mg/mL eye drop, 0h (before instillation)
[3] = 0.15 mg/mL eye drop, 0h (before instillation)
[4] = 1 mg/mL eye drop, 0h (before instillation)
[5] = 4 mg/mL eye drop, 0h (before instillation)

Compound | Average ΔIOP (Normotensive rabbits; [2]) [mmHg] | Average ΔIOP (Normotensive rabbits; 0.05 mg/mL eye drop, 0.5h) [mmHg] | Average ΔIOP (Normotensive rabbits; 0.05 mg/mL eye drop, 1h) [mmHg] | Average ΔIOP (Normotensive rabbits; 0.05 mg/mL eye drop, 2h) [mmHg] | Average ΔIOP (Normotensive rabbits; 0.05 mg/mL eye drop, 4h) [mmHg] | Average ΔIOP (Normotensive rabbits; 0.05 mg/mL eye drop, 8h) [mmHg] | Average ΔIOP (Normotensive rabbits; 0.05 mg/mL eye drop, 24h) [mmHg] | Average ΔIOP (Normotensive rabbits; [3]) [mmHg] | Average ΔIOP (Normotensive rabbits; 0.15 mg/mL eye drop, 0.5h) [mmHg] | Average ΔIOP (Normotensive rabbits; 0.15 mg/mL eye drop, 1h) [mmHg] | Average ΔIOP (Normotensive rabbits; 0.15 mg/mL eye drop, 2h) [mmHg] | Average ΔIOP (Normotensive rabbits; 0.15 mg/mL eye drop, 4h) [mmHg] | Average ΔIOP (Normotensive rabbits; 0.15 mg/mL eye drop, 8h) [mmHg] | Average ΔIOP (Normotensive rabbits; 0.15 mg/mL eye drop, 24h) [mmHg] | Average ΔIOP (Normotensive rabbits; [4]) [mmHg] | Average ΔIOP (Normotensive rabbits; 1 mg/mL eye drop, 0.5h) [mmHg] | Average ΔIOP (Normotensive rabbits; 1 mg/mL eye drop, 1h) [mmHg] | Average ΔIOP (Normotensive rabbits; 1 mg/mL eye drop, 2h) [mmHg] | Average ΔIOP (Normotensive rabbits; 1 mg/mL eye drop, 4h) [mmHg] | Average ΔIOP (Normotensive rabbits; 1 mg/mL eye drop, 8h) [mmHg] | further results
CC(=O)NCc1ccc(-c2csc(-c3cnn4ccccc34)n2)cn1 | 0.0 | -0.9 | -1.8 | -2.3 | -0.3 | 1.2 | 0.1 | 0.0 | -1.4 | -2.0 | -3.3 | -2.0 | 0.0 | -0.9 | 0.0 | -1.2 | -0.7 | -2.3 | -2.3 | 1.4 | Average ΔIOP ([1]; 0.05 mg/mL eye drop, 0h (before administration)): 0.0 mmHg; Average ΔIOP ([1]; 0.05 mg/mL eye drop, 0.5h): -0.8 mmHg; Average ΔIOP ([1]; 0.05 mg/mL eye drop, 2h): -2.5 mmHg; Average ΔIOP ([1]; 0.05 mg/mL eye drop, 8h): -0.7 mmHg; Average ΔIOP ([1]; 0.05 mg/mL eye drop, 24h): -0.2 mmHg; Average ΔIOP ([1]; 4 mg/mL eye drop, 0h (before administration)): 0.0 mmHg; Average ΔIOP ([1]; 4 mg/mL eye drop, 0.5h): -0.7 mmHg; Average ΔIOP ([1]; 4 mg/mL eye drop, 1h): -2.1 mmHg; Average ΔIOP ([1]; 4 mg/mL eye drop, 2h): -3.7 mmHg; Average ΔIOP ([1]; 4 mg/mL eye drop, 4h): -2.2 mmHg; Average ΔIOP ([1]; 4 mg/mL eye drop, 8h): -1.7 mmHg; Average ΔIOP ([1]; 4 mg/mL eye drop, 24h): -0.6 mmHg; Average ΔIOP (Normotensive rabbits; 1 mg/mL eye drop, 24h): -0.2 mmHg; Average ΔIOP (Normotensive rabbits; [5]): 0.0 mmHg; Average ΔIOP (Normotensive rabbits; 4 mg/mL eye drop, 0.5h): -2.6 mmHg; Average ΔIOP (Normotensive rabbits; 4 mg/mL eye drop, 1h): -2.0 mmHg; Average ΔIOP (Normotensive rabbits; 4 mg/mL eye drop, 2h): -4.3 mmHg; Average ΔIOP (Normotensive rabbits; 4 mg/mL eye drop, 4h): -2.9 mmHg; Average ΔIOP (Normotensive rabbits; 4 mg/mL eye drop, 8h): -0.4 mmHg; Average ΔIOP (Normotensive rabbits; 4 mg/mL eye drop, 24h): -0.4 mmHg
Cn1cc(Cl)c(-c2csc(-c3cnn4ccccc34)n2)n1 | 0.0 | -2.0 | -3.2 | -4.1 | -2.2 | -0.5 | -0.9 | 0.0 | -2.1 | -3.0 | -3.8 | -3.2 | 0.2 | -0.5 | 0.0 | -2.0 | -3.0 | -3.9 | -3.8 |  | Average ΔIOP (Normotensive rabbits; 1 mg/mL eye drop, 24h): -0.4 mmHg; Average ΔIOP (Normotensive rabbits; [5]): 0.0 mmHg; Average ΔIOP (Normotensive rabbits; 4 mg/mL eye drop, 0.5h): -2.1 mmHg; Average ΔIOP (Normotensive rabbits; 4 mg/mL eye drop, 1h): -3.1 mmHg; Average ΔIOP (Normotensive rabbits; 4 mg/mL eye drop, 2h): -4.4 mmHg; Average ΔIOP (Normotensive rabbits; 4 mg/mL eye drop, 4h): -4.0 mmHg; Average ΔIOP (Normotensive rabbits; 4 mg/mL eye drop, 8h): -1.3 mmHg; Average ΔIOP (Normotensive rabbits; 4 mg/mL eye drop, 24h): -0.4 mmHg
O=C([O-])c1cccc(-c2csc(-c3cnn4ccccc34)n2)c1.[Na+] | 0.0 | 0.0 | 0.1 | -0.3 | -0.3 | 0.3 | 0.1 | 0.0 | 0.1 |  |  | -0.9 |  |  | 0.0 |  | -0.4 |  | -1.7 | 0.3 | Average ΔIOP (Normotensive rabbits; 1 mg/mL eye drop, 24h): -0.4 mmHg; Average ΔIOP (Normotensive rabbits; [5]): 0.0 mmHg; Average ΔIOP (Normotensive rabbits; 4 mg/mL eye drop, 4h): -1.7 mmHg
CNCc1ccc(-c2csc(-c3cnn4ccccc34)n2)cc1.Cl | 0.0 | 0.1 | 0.1 | 0.1 | -0.1 | 0.2 |  | 0.0 | -0.3 | -0.3 | -0.4 | -0.4 | 0.4 | 0.1 | 0.0 | -0.9 | -0.5 | -1.4 |  | -0.3 | 
CNCc1ccc(-c2csc(-c3cnn4ccccc34)n2)cn1 | 0.0 | 0.2 | 0.3 | 0.2 | 0.1 | 0.6 | 0.2 | 0.0 | -0.2 | -0.1 | -0.5 | -0.5 | 0.4 | -0.3 | 0.0 | -0.4 | -0.8 | -2.0 | -1.4 | 0.0 | Average ΔIOP (Normotensive rabbits; 1 mg/mL eye drop, 24h): -0.5 mmHg; Average ΔIOP (Normotensive rabbits; [5]): 0.0 mmHg; Average ΔIOP (Normotensive rabbits; 4 mg/mL eye drop, 0.5h): -0.5 mmHg; Average ΔIOP (Normotensive rabbits; 4 mg/mL eye drop, 1h): -0.7 mmHg; Average ΔIOP (Normotensive rabbits; 4 mg/mL eye drop, 2h): -2.2 mmHg; Average ΔIOP (Normotensive rabbits; 4 mg/mL eye drop, 4h): -1.4 mmHg; Average ΔIOP (Normotensive rabbits; 4 mg/mL eye drop, 8h): 0.6 mmHg; Average ΔIOP (Normotensive rabbits; 4 mg/mL eye drop, 24h): 0.1 mmHg
